A short description of data set [1]: Surface tension above critical micelle concentration in water (pendant drop method). Format: physicochemical. The conditions noted are these: 5 wt % of the compound in demineralized water, picture 5 seconds after drop. Here is the method: The surface tension of a liquid/air interface can be determined by the “pendant drop method” as described in “Encyclopedia of Surface and Colloid Science” by Marcel Dekker, 2002.
Samples were prepared as 5 wt % of the compound in demineralized water mixed in a 50 mL PE bottle. At 5 wt % it is ensured that concentrations are well above the critical micelle concentration. The samples were left over-night on a shaking table to ensure saturation and/or mixing. The measurements by “pendant drop method” were performed with DataPhysics OCA-15 pus, Dynamic Contact Angle, using software SCA202 V 4.5.8. The needle was a Disposable needle SNP-D 165/137, and the volume drop was 15 microliters.
The picture from which the surface tension is calculated is taken 5 seconds after the drop is forced out of the syringe.

For data set [2] the following is noted: From supplier data sheet; cited from earlier work.

Where two headings read alike, the source gives them in different places. Marks after values point to notes of the source that are not given here.

Poly(ethylene glycol) 400 [PEG-9] gave a Surface tension in data set [1] of 57 mN/m. With PEG-9 octyl phenol, the Surface tension in data set [2] is 30.8* mN/m.

The record behind these values is patent US20170130064A1, “NOVEL POLYSILOXANE-BASED FOULING-RELEASE COATS COMPRISING POLY(OXYALKYLENE)-MODIFIED ALCOHOLS” (HEMPEL A/S, priority 2014, published 2017).
